Measured affinities in a library of Ab-95 light chain variants

The measurements come from Engelhart et al. 2022 (doi:10.1038/s41597-022-01779-4) through the FLAb antibody collection.

Target: peptide PDVDLGDISGINAS, taken from heptad repeat 2 (HR2) of SARS-CoV-2 spike.

Parent scFv Ab-95: VH joined to VL by three GGGGS repeats. Changes lie in the light chain CDRs alone.
VH: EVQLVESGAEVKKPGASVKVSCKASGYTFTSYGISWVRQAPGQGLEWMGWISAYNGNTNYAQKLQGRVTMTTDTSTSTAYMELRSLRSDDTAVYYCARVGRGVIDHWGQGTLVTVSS
VL: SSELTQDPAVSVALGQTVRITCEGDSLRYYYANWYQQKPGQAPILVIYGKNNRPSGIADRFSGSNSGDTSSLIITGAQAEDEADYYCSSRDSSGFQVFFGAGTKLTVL

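Phage display of a naive human antibody library on the peptide gave the parent. In library AAYL52, one, two or three CDR residues were substituted; doubles and triples were drawn at random. AlphaSeq pools MATa yeast showing the antibodies with MATalpha yeast showing the peptide. Binding brings cells together so that they mate, and sequencing counts the barcode pairs among the diploids. Scores were corrected for input abundance and mapped to Kd with protein pairs of known affinity run in the same pool. There are three technical replicates.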

Substitutions are numbered in sequence along the VL above, starting at 1 (not Kabat).
This list gathers variants with a substitution at S88 (VL, numbered from residue 1).
Numbers give log10(Kd / nM), so 0 is 1 nM and 3 is 1 µM. Smaller is tighter.
Replicates are averaged; those with no signal do not enter the mean.
Where no diploid with the target was found in any replicate, the entry reads "no signal": below detection, most likely a poor binder, though not proof of it.
In this assay the parent's reference entry averaged 2.31; its copy inside this library read 2.25.

With Y29V/S88V/G94P the result was no signal (0 of 3 replicates). With D25M/S88M/G94F the result was 3.78 (2 of 3 replicates). With N33A/S88D/D91P the result was 5.81 (1 of 3 replicates). For Y31N/S88E/S93R, the assay gave 1.77 (3 of 3 replicates). The variant S88L/D91P showed 5.52 (2 of 3 replicates). The variant Y31N/S88F gave 1.59 (3 of 3 replicates). The variant N51E/R53E/S88T showed 4.73 (2 of 3 replicates). With G49V/S88A/S93Q the result was no signal (0 of 3 replicates).

With E23H/S88C/G94Q the result was 3.68 (2 of 3 replicates). With D25G/S88E/V97P the result was 2.61 (3 of 3 replicates). The variant G49C/S88D/V97D showed no signal (0 of 3 replicates). For R53Q/S88N/Q96T, the assay gave no signal (0 of 3 replicates). With N51C/S88D/V97G the result was no signal (0 of 3 replicates). The variant G24V/S88F/F98E gave 3.73 (3 of 3 replicates). The variant L27K/A32E/S88I showed 4.13 (1 of 3 replicates). The variant D25P/S88A/Q96D gave 3.03 (3 of 3 replicates).

The variant S88F/R90H/V97E showed 4.10 (2 of 3 replicates). The variant D25T/N33I/S88R showed 4.20 (1 of 3 replicates). For E23W/P54Q/S88K, the assay gave 2.34 (3 of 3 replicates). The variant S88A/S89I gave 3.71 (2 of 3 replicates). The variant S26F/Y31H/S88R gave 3.61 (1 of 3 replicates). With P54W/S88A/G94A the result was 3.52 (3 of 3 replicates). With S88C/R90A/D91Q the result was 1.54 (3 of 3 replicates). With N33Q/S55Y/S88K the result was 4.46 (1 of 3 replicates).

The variant S88F/Q96S/F98P gave 3.90 (3 of 3 replicates). The variant E23M/G49H/S88Y showed 4.32 (1 of 3 replicates). The variant P54K/S55M/S88E gave 2.98 (3 of 3 replicates). For D25T/S88D/S93L, the assay gave no signal (0 of 3 replicates). The variant D25E/S88M/Q96I showed 2.60 (3 of 3 replicates). With S26N/R28A/S88C the result was 3.33 (2 of 3 replicates). With S26R/P54K/S88F the result was 3.85 (2 of 3 replicates). With Y30I/S88A/Q96M the result was 4.18 (3 of 3 replicates).

For L27G/N33W/S88V, the assay gave 5.09 (1 of 3 replicates). For S88P, the assay gave 2.40 (3 of 3 replicates). For S55D/S88W/F95C, the assay gave 3.31 (3 of 3 replicates). For N33I/S88M/F98L, the assay gave 4.27 (3 of 3 replicates). The variant A32T/R53C/S88W gave no signal (0 of 3 replicates). With G49L/S88F/S92V the result was 3.87 (2 of 3 replicates). For S26Q/G49N/S88D, the assay gave no signal (0 of 3 replicates). With Y31C/K50V/S88M the result was 1.79 (3 of 3 replicates).

The variant Y29W/R53V/S88Q gave 3.21 (1 of 3 replicates). The variant S88K/R90A/F98A gave no signal (0 of 3 replicates). The variant N33T/S55H/S88G gave 3.56 (1 of 3 replicates). For L27V/R28E/S88R, the assay gave 4.41 (1 of 3 replicates). The variant S88M/R90A/G94E gave 1.98 (3 of 3 replicates). The variant N33C/S88E/R90H showed 4.89 (1 of 3 replicates).

Repeated from above, the 3 best binders with a signal in all replicates:

{"changes": "S88C/R90A/D91Q", "mean, log10 nM": "1.54", "seen in": "3 of 3"}
{"changes": "Y31N/S88F", "mean, log10 nM": "1.59", "seen in": "3 of 3"}
{"changes": "Y31N/S88E/S93R", "mean, log10 nM": "1.77", "seen in": "3 of 3"}

Background: pairings of library AAYL52 with three empty control strains gave a value in 28% of cases (median 3.91, 5th percentile 2.90). Values in that range, when seen in few replicates, are hard to tell from nonspecific mating.